Results as given in patent publication US11535629B2, “Dioxoloisoquinolinone derivatives and use thereof” (HANMI PHARMACEUTICAL CO., LTD., priority 2020, dated 2022).

Protein sequences, listed by entry. Tags and fused reporters are not part of them.
UniProt Q15910, whole entry: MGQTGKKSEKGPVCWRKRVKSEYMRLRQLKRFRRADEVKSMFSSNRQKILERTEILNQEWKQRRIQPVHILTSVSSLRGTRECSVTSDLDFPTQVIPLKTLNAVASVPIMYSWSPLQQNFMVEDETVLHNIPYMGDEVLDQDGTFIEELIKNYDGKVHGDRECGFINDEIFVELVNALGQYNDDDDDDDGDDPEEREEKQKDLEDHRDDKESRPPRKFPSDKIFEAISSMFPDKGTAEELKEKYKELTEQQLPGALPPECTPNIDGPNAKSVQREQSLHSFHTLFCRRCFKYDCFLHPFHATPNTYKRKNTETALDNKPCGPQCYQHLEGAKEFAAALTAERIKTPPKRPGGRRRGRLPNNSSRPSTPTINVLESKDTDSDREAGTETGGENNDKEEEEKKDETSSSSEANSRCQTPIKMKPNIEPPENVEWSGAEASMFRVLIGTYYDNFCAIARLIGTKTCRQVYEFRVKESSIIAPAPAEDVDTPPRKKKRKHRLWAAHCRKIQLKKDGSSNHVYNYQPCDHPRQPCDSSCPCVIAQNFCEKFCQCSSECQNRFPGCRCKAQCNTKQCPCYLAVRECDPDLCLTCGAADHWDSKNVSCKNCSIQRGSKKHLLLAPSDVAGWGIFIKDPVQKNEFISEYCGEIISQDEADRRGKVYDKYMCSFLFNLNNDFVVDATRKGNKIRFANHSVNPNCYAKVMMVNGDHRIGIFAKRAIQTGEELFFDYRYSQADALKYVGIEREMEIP

biological target: EZH2 (Homo sapiens (Human), UniProt Q15910); assay: EZH2 methyltransferase inhibitory activity (radiometric scintillation proximity assay); conditions: not given

| IC50 [nM] | Structure (SMILES) |
| --- | --- |
| 0.59 | Cc1cc(C)c(CN2CCc3c(C)c4c(c(C)c3C2=O)OC(C)(C23CCC(N(C)C)(CC2)CC3)O4)c(=O)[nH]1 (single isomer, unassigned) [Compound 23, 6-((4,6-dimethyl-2-oxo-1,2-dihydropyridin-3-yl)methyl)-2-(4-(dimethylamino)bicyclo[2.2.2]octan-1-yl)-2,4,9-trimethyl-7,8-dihydro-[1,3]dioxolo[4,5-g]isoquinolin-5(6H)-one] |
| 1.2 to 1.7 | Cc1cc(C)c(CN2CCc3c(c(C)c4c(c3-c3ccco3)O[C@](C)([C@H]3CC[C@H](N(C)C)CC3)O4)C2=O)c(=O)[nH]1 [Compound 30, (R)-6-((4,6-dimethyl-2-oxo-1,2-dihydropyridin-3-yl)methyl)-2-(trans-4-(dimethylamino)cyclohexyl)-9-(furan-2-yl)-2,4-dimethyl-7,8-dihydro-[1,3]dioxolo[4,5-g]isoquinolin-5(6H)-one] |
| 0.36 | Cc1cc(C)c(CN2CCc3c(Cl)c4c(c(C)c3C2=O)OC(C)(C23CCC(N(C)C)(CC2)CC3)O4)c(=O)[nH]1 (single isomer, unassigned) [Compound 2, 9-chloro-6-((4,6-dimethyl-2-oxo-1,2-dihydropyridin-3-yl)methyl)-2-(4-(dimethylamino)bicyclo[2.2.2]octan-1-yl)-2,4-dimethyl-7,8-dihydro-[1,3]dioxolo[4,5-g]isoquinolin-5(6H)-one] |
| 1.2 | COc1cc(C)[nH]c(=O)c1CN1CCc2c(Cl)c3c(c(C)c2C1=O)OC(C)(C12CCC(N(C)C)(CC1)CC2)O3 (single isomer, unassigned) [Compound 5, 9-chloro-2-(4-(dimethylamino)bicyclo[2.2.2]octan-1-yl)-6-((4-methoxy-6-methyl-2-oxo-1,2-dihydropyridin-3-yl)methyl)-2,4-dimethyl-7,8-dihydro[1,3]dioxolo[4,5-g]isoquinolin-5(6H)-one] |
| 0.35 | Cc1cc(C)c(CN2CCc3c(Br)c4c(c(C)c3C2=O)OC(C)(C23CCC(N(C)C)(CC2)CC3)O4)c(=O)[nH]1 (single isomer, unassigned) [Compound 11, 9-bromo-6-((4,6-dimethyl-2-oxo-1,2-dihydropyridin-3-yl)methyl)-2-(4-(dimethylamino)bicyclo[2.2.2]octan-1-yl)-2,4-dimethyl-7,8-dihydro-[1,3]dioxolo[4,5-g]isoquinolin-5(6H)-one] |
| 15 | CSc1cc(C)[nH]c(=O)c1CN1CCc2c(Cl)c3c(c(C)c2C1=O)OC(C)(C12CCC(N(C)C)(CC1)CC2)O3 (single isomer, unassigned) [Compound 8, 9-chloro-2-(4-(dimethylamino)bicyclo[2.2.2]octan-1-yl)-2,4-dimethyl-6-((6-methyl-4-(methylthio)-2-oxo-1,2-dihydropyridin-3-yl)methyl)-7,8-dihydro[1,3]dioxolo[4,5-g]isoquinolin-5(6H)-one] |

same assay, conditions: read-out: Enzyme inhibitory activity (IC50, nM) EZH2; 2.3 nmol/L EZH2, 90 minutes at room temperature

| Structure (SMILES) | IC50 [nM] |
| --- | --- |
| Cc1cc(C)c(CN2CCc3c(c(C)c4c(c3-c3ccncc3)O[C@](C)([C@H]3CC[C@H](N(C)C)CC3)O4)C2=O)c(=O)[nH]1 [Compound 34, (R)-6-((4,6-dimethyl-2-oxo-1,2-dihydropyridin-3-yl)methyl)-2-(trans-4-(dimethylamino)cyclohexyl)-2,4-dimethyl-9-(pyridin-4-yl)-7,8-dihydro-[1,3]dioxolo[4,5-g]isoquinolin-5(6H)-one] | 3.4 |
| Cc1cc(C)c(CN2CCc3c(c(C)c4c(c3-c3ccc(C)o3)O[C@](C)([C@H]3CC[C@H](N(C)C)CC3)O4)C2=O)c(=O)[nH]1 [Compound 40, (R)-6-((4,6-dimethyl-2-oxo-1,2-dihydropyridin-3-yl)methyl)-2-(trans-4-(dimethylamino)cyclohexyl)-2,4-dimethyl-9-(5-methylfuran-2-yl)-7,8-dihydro-[1,3]dioxolo[4,5-g]isoquinolin-5(6H)-one] | 2.2 |
| Cc1cc(C)c(CN2CCc3c(c(C)c4c(c3-c3cccs3)O[C@](C)([C@H]3CC[C@H](N(C)C)CC3)O4)C2=O)c(=O)[nH]1 [Compound 32, (R)-6-((4,6-dimethyl-2-oxo-1,2-dihydropyridin-3-yl)methyl)-2-(trans-4-(dimethylamino)cyclohexyl)-2,4-dimethyl-9-(thiophen-2-yl)-7,8-dihydro-[1,3]dioxolo[4,5-g]isoquinolin-5(6H)-one] | 2.5 |
| Cc1cc(C)c(CN2CCc3c(c(C)c4c(c3-c3cccnc3)O[C@](C)([C@H]3CC[C@H](N(C)C)CC3)O4)C2=O)c(=O)[nH]1 [Compound 44, (R)-6-((4,6-dimethyl-2-oxo-1,2-dihydropyridin-3-yl)methyl)-2-(trans-4-(dimethylamino)cyclohexyl)-2,4-dimethyl-9-(pyridin-3-yl)-7,8-dihydro-[1,3]dioxolo[4,5-g]isoquinolin-5(6H)-one] | 3.3 |
| Cc1cc(C)c(CN2CCc3c(c(C)c4c(c3-c3cccn3C)O[C@](C)([C@H]3CC[C@H](N(C)C)CC3)O4)C2=O)c(=O)[nH]1 [Compound 48, (R)-6-((4,6-dimethyl-2-oxo-1,2-dihydropyridin-3-yl)methyl)-2-(trans-4-(dimethylamino)cyclohexyl)-2,4-dimethyl-9-(1-methyl-1H-pyrrol-2-yl)-7,8-dihydro-[1,3]dioxolo[4,5-g]isoquinolin-5(6H)-one] | 3.3 |

Continued, values first:

| IC50 [nM] | Structure (SMILES) |
| --- | --- |
| 2.7 | Cc1cc(C)c(CN2CCc3c(c(C)c4c(c3-c3cncs3)O[C@](C)([C@H]3CC[C@H](N(C)C)CC3)O4)C2=O)c(=O)[nH]1 [Compound 52, (R)-6-((4,6-dimethyl-2-oxo-1,2-dihydropyridin-3-yl)methyl)-2-(trans-4-(dimethylamino)cyclohexyl)-2,4-dimethyl-9-(thiazol-5-yl)-7,8-dihydro-[1,3]dioxolo[4,5-g]isoquinolin-5(6H)-one] |
| 3.8 | Cc1cc(C)c(CN2CCc3c(c(C)c4c(c3-c3ccsc3)O[C@](C)([C@H]3CC[C@H](N(C)C)CC3)O4)C2=O)c(=O)[nH]1 [Compound 50, (R)-6-((4,6-dimethyl-2-oxo-1,2-dihydropyridin-3-yl)methyl)-2-(trans-4-(dimethylamino)cyclohexyl)-2,4-dimethyl-9-(thiophen-3-yl)-7,8-dihydro-[1,3]dioxolo[4,5-g]isoquinolin-5(6H)-one] |
